Among the data in ChEMBL document CHEMBL3244133, “Synthesis and biological activities of some uronic acids, uronates, uronamides, and urononitriles of pyrimidine nucleosides” (J Med Chem, 1978) are pKa values, retold here.

This data set is described as follows: Dissociation constant, pKa of the compound. The format is physicochemical.

What is called pKa is the pH at which an ionisable group is half protonated. Lower therefore signals a group that gives up its proton readily. In the case of `O=c1[nH]c(=O)n([C@H]2C[C@H](O)[C@@H](CO)O2)cc1F` [FLOXURIDINE], the pKa is 7.7.
